# Literature values in PubChem BioAssay AID1811 (Shanghai Institute of Organic Chemistry, 2009).
# Some of the results follow. Active and inactive are the calls of the source. Where no limit is named, active and inactive come without a cut-off here.
# System: hiv-1 protease
# Test: PubChem AID 1811
# Conditions: PDB complex binding affinities from literature
compound,measurement,value
O=C(N[C@H]1c2ccccc2C[C@H]1O)[C@H](Cc1ccccc1)CC(O)C[C@@H](Cc1ccccc1)C(=O)N[C@H]1c2ccccc2C[C@H]1O,outcome,active
